Test results from patent US12018084B2, “Anti-CXCR2 antibodies and uses thereof” (Cephalon LLC, priority 2018, dated 2024).

The chains behind the UniProt entries cited, without tags or fusion partners.
UniProt P25025, whole entry: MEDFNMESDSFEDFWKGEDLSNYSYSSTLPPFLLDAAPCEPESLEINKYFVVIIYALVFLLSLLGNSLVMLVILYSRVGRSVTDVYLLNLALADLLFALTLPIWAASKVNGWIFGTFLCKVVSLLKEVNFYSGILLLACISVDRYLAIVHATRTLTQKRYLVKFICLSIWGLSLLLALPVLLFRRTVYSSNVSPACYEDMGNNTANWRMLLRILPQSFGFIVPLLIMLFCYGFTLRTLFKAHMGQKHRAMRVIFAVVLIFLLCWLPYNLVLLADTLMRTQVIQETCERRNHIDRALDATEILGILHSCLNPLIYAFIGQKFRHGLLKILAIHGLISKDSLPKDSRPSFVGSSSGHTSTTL

What was measured:
[1] = molecular target: T1, Human CXCR2 (Homo sapiens, UniProt P25025); assay: Calcium flux assay, HTS002C-CHEMISCREEN human CXCR2 calcium-optimized cell line; assay type: cell-based
Method: One of the signaling pathways downstream of CXCR2 activation that has a role in cell chemotaxis is characterized by calcium mobilization (flux). The ability of BKO-4A8-101c to inhibit human CXCR2 ligand-induced calcium flux was tested in the commercially available HTS002C-CHEMISCREEN™ human CXCR2 chemokine receptor calcium-optimized cell line.
The Fluo-4 NW calcium assay kit (Life Technologies) was used according to manufacturer's protocol for in-cell measurement of calcium mobilization, which was read using a FLIPR Tetra high-throughput cellular screening system (Molecular Devices). The peak response minus the basal response from each well was used to determine inhibition dose response curves fitting a four-parameter logistic equation and IC50 values.

[2] = molecular target: T1, Human CXCR2; assay: Tango CXCR2-bla U2OS cell-based β-arrestin recruitment assay; parameters: The beta-arrestin/TEV protease fusion and the beta-lactamase reporter are separate parts of the cell line; details: comparison with comparators
Source text: Cells were thawed, propagated, cultured and frozen according to the manufacturer's directions.
Preparation of Tango™ CXCR2-bla U2OS cells for use in cell-based assays: The manufacturer's protocol was altered to make use of 96-well plates instead of 384-well plates. Briefly, dividing cells were harvested one day prior to use. Cells were harvested and resuspended in assay medium (100% FreeStyle™ Expression Medium; Life Technologies; Cat #12338-018) at a viable cell density of 312,500 cells/mL. 128 μL of cell suspension was added per well in 96-well black-walled, clear bottom tissue culture-treated plates. Cells were incubated for 16-20 hrs at 37° C. in an atmosphere of 5% CO2 prior to use in assays.
Tango™ assay procedure: Assays were set up and run as described in the manufacturer's protocol. For antagonist assays, agonists were used at concentrations in the EC50-EC80 range. Assays were read using a FlexStation® 3 (Molecular Devices) fluorescence plate reader configured with the parameters given in Table 4. The blue/green emission ratio for each well was calculated by dividing the blue emission values by the green emission values. All inhibition curves were fitted using a four-parameter dose-response using GraphPad Prism™ (Version 7.01).
The Human CXCR2 Tango™ cell line was used to assess the ability of antibody BKO-4A8-101c to inhibit β-arrestin recruitment to agonist-activated CXCR2. All human ELR+ chemokine CXCR2 ligands were tested in antagonist dose response assays using calculated EC50 values of agonist.
The commercially available reporter cell line Tango™ CXCR2-bla U2OS (ThermoFisher Scientific) was used to assess the ability of the anti-CXCR2 antibodies to inhibit β-arrestin recruitment to agonist-activated CXCR2. Agonists were provided at their assay EC50 concentration for antagonist assays.

SMILES: CC[C@@H](Nc1c(Nc2cccc(C(=O)N(C)C)c2O)c(=O)c1=O)c1ccc(C)o1 [Antagonist 6, SCH 527123, reference compound]
- CXCL1 Maximal Inhibition % ([1]; CXCL1 at EC50): 96%
- CXCL8 Maximal Inhibition % ([1]; CXCL8 at EC50): 98%
- CXCL1 Maximal Inhibition % ([2]; CXCL1 at EC50): 99%
- CXCL5 Maximal Inhibition % ([2]; CXCL5 at EC50): 97%
- CXCL8 Maximal Inhibition % ([2]; CXCL8 at EC50): 98%
